## Apparent affinities of Ab-14 variants for a coronavirus HR2 peptide

All variants were tested on one target, the spike HR2 peptide PDVDLGDISGINAS (SARS-CoV-2).

Parent scFv Ab-14: VH joined to VL by the linker GGGGSGGGGSGGGGS. Changes lie in the light chain CDRs alone.
VH: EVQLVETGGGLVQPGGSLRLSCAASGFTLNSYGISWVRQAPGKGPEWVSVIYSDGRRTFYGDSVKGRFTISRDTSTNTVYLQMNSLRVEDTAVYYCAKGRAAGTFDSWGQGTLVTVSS
VL: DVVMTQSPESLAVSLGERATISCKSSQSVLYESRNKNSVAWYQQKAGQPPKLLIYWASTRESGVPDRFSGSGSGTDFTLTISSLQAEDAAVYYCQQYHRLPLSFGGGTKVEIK

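AAYL50 was designed without a model: most single CDR substitutions and a random sample of double and triple ones. AlphaSeq pools MATa yeast showing the antibodies with MATalpha yeast showing the peptide. Binding brings cells together so that they mate, and sequencing counts the barcode pairs among the diploids. Each replicate has its own calibration line, from reference interactions of the BCL2 family. The assay was run in three technical replicates.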

Variants are written as CDR1, CDR2 and CDR3 of the light chain (limits as in the source). Parent: KSSQSVLYESRNKNSVA, WASTRES, QQYHRLPLS.
This list gathers variants with a substitution at W56 (VL, numbered from residue 1).
The Kd shown is the geometric mean over detected replicates; a lower Kd is a better binder.
A pair that was not seen in any replicate is written "nd"; this usually means weak binding, but a binder can also be missed.
As a blank, each scFv also met three strains without target: over library AAYL50, 18% of these pairings were detected, typically at 15 µM and seldom below 970 nM.

KSSQSVLYESRNKNSVA, YASTRES, QQYHRLPYS: nd (0 of 3 replicates).
KSSQSVLYESRNKNSVA, YASTRES, QQYDRLPLS: 3.2 nM (3 of 3 replicates).
KSSQSVLYTSRDKNSVA, YASTRES, QQYHRLPLS: 7.0 nM (3 of 3 replicates).
KSSQSVQYESRNHNSVA, PASTRES, QQYHRLPLS: nd (0 of 3 replicates).
KSSQSVLYDSRNKNSVA, PASPRES, QQYHRLPLS: nd (0 of 3 replicates).
KSSQSVLYESRNKNSVA, NASTRWS, QQYHRLPLF: 12 nM (3 of 3 replicates).
KSSQSVLYESRNKNLVA, MALTRES, QQYHRLPLS: 6.5 µM (1 of 3 replicates).
KSSQSVLYGSRNKNSVA, CASTRES, QQYHRLFLS: nd (0 of 3 replicates).
PDSQSVLYESRNKNSVA, TASTRES, QQYHRLPLS: 6.5 µM (2 of 3 replicates).
KSSMSVLYESRNKNSVA, MASTLES, QQYHRLPLS: 380 nM (3 of 3 replicates).
KSSQSVLYESRNKNWVA, RASTRES, YQYHRLPLS: nd (0 of 3 replicates).
KSSQSVLYESRNNNSVA, PASTRES, GQYHRLPLS: nd (0 of 3 replicates).
KSSNSVLYESMNKNSVA, QASTRES, QQYHRLPLS: 1.4 nM (3 of 3 replicates).
KSSQSVLYESRNKHSVA, SASTRES, QSYHRLPLS: 1.5 nM (3 of 3 replicates).
KSSQSVLYESRNKNSVA, VASTRES, QQYHYLPLG: 33 µM (2 of 3 replicates).
KSSQSVLYESRNSNSVA, HASTRES, QQYHRSPLS: 6.3 µM (3 of 3 replicates).
KSSQSVLYESDNKNSVA, AASTRES, QQYHRFPLS: 4.0 nM (3 of 3 replicates).
KSSQSVLYESRNKNSVA, YASTPES, AQYHRLPLS: 5.2 µM (3 of 3 replicates).
KSSQSVNYESRNKNSVA, IASTRES, QQYHRLPLS: nd (0 of 3 replicates).
KSSQSVLYESRAKNSVA, AASTRES, QQYHRLPLS: 1.7 nM (3 of 3 replicates).
KSSQSILYESRNKNSVA, GPSTRES, QQYHRLPLS: 5.3 µM (3 of 3 replicates).
KSSGSVLYEHRNKNSVA, HASTRES, QQYHRLPLS: 2.2 nM (3 of 3 replicates).
KSSQSVLYESRNKRSVA, CASTRES, QQYHRLPLS: 23 nM (3 of 3 replicates).
KSSESVLYESRNKNSVA, EASTRES, QQYHRLPLR: 850 pM (3 of 3 replicates).
KSSQSVLYESRWKKSVA, AASTRES, QQYHRLPLS: 2.3 nM (3 of 3 replicates).
KSSQSVLYEARNKESVA, SASTRES, QQYHRLPLS: 4.2 nM (3 of 3 replicates).
KSSPSVLMESRNKNSVA, CASTRES, QQYHRLPLS: 4.7 nM (3 of 3 replicates).
KSSQSVLYESRNKNSVA, EASTRET, QQYHRWPLS: 1.0 nM (3 of 3 replicates).
KSSQSVLYESRNKNSVA, HGSTRES, QQYHCLPLS: 6.3 nM (3 of 3 replicates).
KFSQSVLHESRNKNSVA, TASTRES, QQYHRLPLS: 390 pM (3 of 3 replicates).
KSSQSVLYNSRNCNSVA, LASTRES, QQYHRLPLS: 72 nM (3 of 3 replicates).
KSSQSVLYESRNKNSVA, AASTRES, QQYHRDPLD: nd (0 of 3 replicates).
KSSQSVLYESRIKNSVA, NASTRES, QQYHRLPLS: 11 nM (3 of 3 replicates).
KSSQSVLYESRTKNSVA, IASTRES, QQYHRLPLL: 100 µM (1 of 3 replicates).
KSSQSVLYESRNKNSVA, SAFTRPS, QQYHRLPLS: 2.0 nM (3 of 3 replicates).
KSSQQVLYESRNKNSVA, SASTRES, QQYHRLPHS: 93 µM (2 of 3 replicates).
KSSQVVLYESRNKNSVA, CASTRES, QQQHRLPLS: 230 nM (3 of 3 replicates).
KSSQSVLYESRNKNSVA, AASTREA, QQYHRLPLS: 1.2 nM (3 of 3 replicates).

The opening 3 entries, copied out:

CDR-L1	CDR-L2	CDR-L3	Kd	detected
KSSQSVLYESRNKNSVA	YASTRES	QQYHRLPYS	nd	0/3
KSSQSVLYESRNKNSVA	YASTRES	QQYDRLPLS	3.2 nM	3/3
KSSQSVLYTSRDKNSVA	YASTRES	QQYHRLPLS	7.0 nM	3/3

Parent in this assay: reference entry 4.4 nM, copy in this library 48 nM.

From the AlphaSeq antibody data of Engelhart et al. 2022 (doi:10.1038/s41597-022-01779-4), copy in the FLAb collection.